Tests used:
[1] = biological target: Serotonin 2 (5-HT2) receptor (Rattus norvegicus, UniProt P30994+P08909+P14842)
[2] = biological target: 5-hydroxytryptamine receptor 1B (Rattus norvegicus, UniProt P28564)

Sequences of proteins named here, by UniProt entry; tags and fusion partners are left off. A change or cut given only in a name is not applied to a line headed by its entry.
UniProt P30994: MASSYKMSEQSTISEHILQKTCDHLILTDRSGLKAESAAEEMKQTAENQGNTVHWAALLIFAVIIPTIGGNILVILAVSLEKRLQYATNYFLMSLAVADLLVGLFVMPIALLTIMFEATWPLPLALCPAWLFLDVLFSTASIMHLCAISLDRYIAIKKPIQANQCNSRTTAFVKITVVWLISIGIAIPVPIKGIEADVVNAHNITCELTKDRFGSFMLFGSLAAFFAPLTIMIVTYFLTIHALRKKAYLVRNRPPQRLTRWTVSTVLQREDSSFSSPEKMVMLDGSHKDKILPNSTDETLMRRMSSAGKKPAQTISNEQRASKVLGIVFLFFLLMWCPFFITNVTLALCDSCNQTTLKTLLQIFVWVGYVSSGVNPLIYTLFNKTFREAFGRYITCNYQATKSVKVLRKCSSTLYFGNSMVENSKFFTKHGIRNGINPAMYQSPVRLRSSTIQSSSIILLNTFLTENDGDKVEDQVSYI
UniProt P08909: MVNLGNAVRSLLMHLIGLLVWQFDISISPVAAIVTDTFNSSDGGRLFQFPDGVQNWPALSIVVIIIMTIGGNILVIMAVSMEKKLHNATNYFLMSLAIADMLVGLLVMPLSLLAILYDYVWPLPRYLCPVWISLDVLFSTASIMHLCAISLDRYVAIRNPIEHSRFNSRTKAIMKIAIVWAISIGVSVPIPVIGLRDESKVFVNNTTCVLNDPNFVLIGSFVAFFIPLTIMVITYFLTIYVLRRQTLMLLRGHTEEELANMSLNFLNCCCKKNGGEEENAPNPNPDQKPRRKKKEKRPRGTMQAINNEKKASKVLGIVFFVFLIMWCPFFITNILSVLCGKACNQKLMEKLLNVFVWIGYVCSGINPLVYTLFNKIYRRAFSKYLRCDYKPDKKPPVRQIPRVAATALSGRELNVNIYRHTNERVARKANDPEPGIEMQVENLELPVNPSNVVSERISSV
UniProt P14842: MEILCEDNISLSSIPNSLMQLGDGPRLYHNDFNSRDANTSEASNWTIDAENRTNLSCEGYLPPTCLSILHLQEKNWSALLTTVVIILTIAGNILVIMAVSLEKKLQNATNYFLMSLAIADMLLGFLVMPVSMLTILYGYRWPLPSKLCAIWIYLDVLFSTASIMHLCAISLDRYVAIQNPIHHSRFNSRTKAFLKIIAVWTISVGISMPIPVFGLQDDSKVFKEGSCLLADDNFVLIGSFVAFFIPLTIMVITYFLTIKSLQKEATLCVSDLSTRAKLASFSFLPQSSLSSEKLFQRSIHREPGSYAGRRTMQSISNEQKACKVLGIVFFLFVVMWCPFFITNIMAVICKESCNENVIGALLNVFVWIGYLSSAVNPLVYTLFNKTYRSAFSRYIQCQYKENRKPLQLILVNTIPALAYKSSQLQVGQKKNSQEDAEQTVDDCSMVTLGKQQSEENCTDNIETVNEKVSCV
UniProt P28564, whole entry: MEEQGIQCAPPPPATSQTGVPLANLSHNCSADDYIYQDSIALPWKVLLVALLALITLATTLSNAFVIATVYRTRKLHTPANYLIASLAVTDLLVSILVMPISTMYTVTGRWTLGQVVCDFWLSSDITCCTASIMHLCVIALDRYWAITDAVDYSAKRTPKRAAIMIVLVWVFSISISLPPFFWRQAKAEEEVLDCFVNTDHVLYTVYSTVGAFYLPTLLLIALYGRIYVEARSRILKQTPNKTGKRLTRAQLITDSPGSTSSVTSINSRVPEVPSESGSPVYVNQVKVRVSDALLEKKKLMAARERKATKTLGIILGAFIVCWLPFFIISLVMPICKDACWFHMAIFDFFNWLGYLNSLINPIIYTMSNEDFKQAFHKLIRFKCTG

| SMILES | Ki [1] [nM] | Ki [2] [µM] |
| --- | --- | --- |
| CCc1cc(OC)c(CC(C)N)cc1OC (centres undefined) | 100 | – |
| COc1cc(OC)c(OC)cc1CC(C)N (centres undefined) | 1650 | – |
| CCCN(CCC)C1CCc2cccc(O)c2C1 (centres undefined) [8-OH-DPAT] | – | 63 |
| O=C(CCCN1CCC2(CC1)C(=O)NCN2c1ccccc1)c1ccc(F)cc1 [SPIPERONE] | 0.5 | – |
